From patent publication US20220089593A1, “PDE9 INHIBITOR AND USE THEREOF” (TRANSTHERA SCIENCES (NANJING), INC., priority 2019, published 2022) come the findings set out here.

Sequences of proteins named here, by UniProt entry; tags and fusion partners are left off. Residues count along the entry.
UniProt O76083, 1-533 isoform O76083-2: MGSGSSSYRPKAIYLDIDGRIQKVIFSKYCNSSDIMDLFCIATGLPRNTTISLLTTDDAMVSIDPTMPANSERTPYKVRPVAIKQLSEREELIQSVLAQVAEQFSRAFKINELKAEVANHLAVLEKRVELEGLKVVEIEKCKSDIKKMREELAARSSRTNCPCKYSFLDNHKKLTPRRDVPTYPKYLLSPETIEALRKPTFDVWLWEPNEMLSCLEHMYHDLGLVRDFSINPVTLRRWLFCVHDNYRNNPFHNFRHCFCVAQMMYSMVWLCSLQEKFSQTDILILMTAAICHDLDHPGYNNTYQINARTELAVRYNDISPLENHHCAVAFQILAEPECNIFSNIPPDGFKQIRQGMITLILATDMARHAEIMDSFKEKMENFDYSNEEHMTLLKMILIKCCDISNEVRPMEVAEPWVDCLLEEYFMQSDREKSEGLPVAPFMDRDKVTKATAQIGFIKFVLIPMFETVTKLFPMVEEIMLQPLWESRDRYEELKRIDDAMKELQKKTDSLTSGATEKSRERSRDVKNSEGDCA

Molecules are shown by their SMILES.

As a reminder, the IC50 is the concentration at which inhibition is half-maximal.

This assay addresses T1, PDE9A2 enzyme (Homo sapiens, UniProt O76083).
T1 construct: purchased BPS 60090
Briefly: PDE9 enzymatic evaluation. The assay is classed as biochemical. To be noted: PDE9A2 enzyme (BPS), fluorescence reading 480 nm/535 nm, room temperature.

`COC1(C)CCN(c2c(C#N)c(=O)[nH]c3cnc(C4CC4)cc23)CC1` [Compound 164, 6-cyclopropyl-4-(4-methoxy-4-methylpiperidin-1-yl)-2-oxo-1,2-dihydro-1,7-naphthyridine-3-carbonitrile] returned a half-maximal inhibitory concentration (IC50) of 25 nM.
